Assay results taken from ChEMBL document CHEMBL4052797, “N-alkyl-[1,1'-biphenyl]-2-sulfonamide derivatives as novel broad spectrum anti-epileptic drugs with efficacy equivalent to that of sodium valproate” (2017).

Test system: Mus musculus
Test: Therapeutic index, ratio of TD50 for neurotoxicity in po dosed mouse to ED50 for po dosed 6-Hz induced seizure mouse model

CCCC(CCC)C(=O)[O-].[Na+] [VALPROATE SODIUM]
Ratio TD50/ED50: 1
